Like-named read-outs stand apart in the source and are kept apart here. A value given as a limit tells only on which side of the number the result lay.

By UniProt entry, the sequences of proteins in these tests, tags left out. Residues count along the entry.
UniProt P53634, 395-463: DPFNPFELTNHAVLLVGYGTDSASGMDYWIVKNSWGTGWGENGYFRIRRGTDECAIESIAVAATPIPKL
UniProt P53634, 25-134: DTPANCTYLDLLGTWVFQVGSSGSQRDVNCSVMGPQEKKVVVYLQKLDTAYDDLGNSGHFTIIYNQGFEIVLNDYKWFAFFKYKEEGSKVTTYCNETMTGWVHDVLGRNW
UniProt P53634, 231-394: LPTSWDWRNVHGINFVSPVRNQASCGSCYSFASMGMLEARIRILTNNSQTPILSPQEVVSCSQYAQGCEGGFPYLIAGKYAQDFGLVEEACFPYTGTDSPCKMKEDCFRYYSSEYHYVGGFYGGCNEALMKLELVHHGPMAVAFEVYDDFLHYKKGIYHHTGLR

Experimental findings from US20260008758A1, “LINEAR DIPEPTIDYL PEPTIDASE 1 INHIBITORS AND USES THEREOF” (Insmed Incorporated, priority 2024, published 2026) are described below.

For one assay, the target named is DPP1 in HL-60 cells (Homo sapiens (Human), UniProt P53634). As to the kind of experiment: DPP1 Cell IC50 assay. Conditions: H-Gly-Phe-AFC substrate, 60 min pre-incubation. Type of assay: cell-based. Here is the method:
Media was changed every three to four days and cells were not allowed to exceed 1×10^6 cells per mL. Prior to assay, cells were collected by centrifugation at 500 rcf for 3 minutes, resuspended in PBS and counted. Cells were diluted in PBS to a concentration of 5×10^5 live cells per mL and transferred to black 96-well plates for assay, 60 μL per well. Test articles were diluted in PBS plus 0.5% DMSO, and 20 μL was added to each assay well. Compound was allowed to pre-incubate with cells with gentle shaking at 100 rpm for 60 minutes at 37° C. in a cell culture incubator maintained at 5% CO2, after which 20 μL of 500 μM H-Gly-Phe-AFC substrate (MP Biomedicals; Solon, OH) was added to each well. Plates were returned to the incubator with shaking at 100 rpm for 30 minutes, after which fluorescence was measured at Excitation/Emission 400/505 nm. % Inhibition was calculated from RFU values compared to control cell wells that received only PBS plus 0.5% DMSO. IC50 values for each compound were calculated via the XLFit (IDBS Version 5.3.1.3) Add-On to Microsoft Excel using the four parameter fit equation y=(A+((B-A)/(1+((C/x)^D)))), which appears as equation number 205 (4 Parameter Logistic Model or Sigmoidal Dose-Response Model) in XLFit.

A further assay concerns the target human DPP1 enzyme (Homo sapiens (Human), UniProt P53634). As to the kind of experiment: Human DPP1 enzyme IC50 assay. In kind it is biochemical. Here is the method:
Test articles were applied to activated human DPP1 enzyme in Assay Buffer (25 mM MES pH 6.0, 50 mM NaCl, 5 mM DTT) in a total reaction volume of 125 μL. 25 μL of compound in Assay Buffer plus 5% DMSO was first added to 50 μL of activated human DPP1 enzyme at a concentration of 1 ng/μL and allowed to pre-incubate for 10 minutes at 37° C. after which 50 μL of 1000 μM H-Gly-Arg-AMC substrate (Bachem; St. Torrance, CA) was added, giving final substrate concentration of 400 μM and a final DMSO concentration of 1%. Substrate cleavage was measured for 90 minutes at 37° C., with fluorescence at Excitation/Emission 350/450 nm measured every 5 minutes. DPP1 concentration was interpolated based on its activity relative to a standard curve of activated human recombinant DPP1 enzyme. IC50 values for each compound were calculated via the XLFit (IDBS Version 5.3.1.3) Add-On to Microsoft Excel using the four parameter fit equation y={A+[(B-A)]/[1+((C/x)^D)]}, which appears as equation number 205 (4 Parameter Logistic Model or Sigmoidal Dose-Response Model) in XLFit. Default constraints were used for each Parameter. IC50 was defined as the compound concentration at which 50% of enzyme activity was inhibited when compared to the no-compound control.

The mark [1] stands for this setting: recombinant human DPP1, H-Gly-Arg-AMC substrate 400 μM.

The IC50 is the concentration at which inhibition is half-maximal. In the case of `N#Cc1ccc(-c2ccc(C[C@@H](C#N)NC(=O)C3(N)CCOCC3)cc2)cc1` [Compound 246], the IC50 was at least 2.5 nM against DPP1 in HL-60 cells and 5 to 15 nM at human DPP1 enzyme (setting [1]).
As for `Cn1c(=O)oc2ccc(-c3ccc(C[C@@H](C#N)NC(=O)CCOC(=O)c4cccs4)cc3)cc21` [Compound 244, 2-{[(1S)-1-cyano-2-[4-(3-methyl-2-oxo-1,3-benzoxazol-5-yl)phenyl]ethyl]carbamoyl}ethyl thiophene-2-carboxylate], the half-maximal inhibitory concentration (IC50) on human DPP1 enzyme (setting [1]) is at least 15 nM.
`Cn1c(=O)oc2ccc(-c3ccc(C[C@@H](C#N)NC(=O)CC(N)Cc4ccccc4O)cc3)cc21` (stereo partly drawn) [Compound 228, 3-amino-N-[(1S)-1-cyano-2-[4-(3-methyl-2-oxo-1,3-benzoxazol-5-yl)phenyl]ethyl]-4-(2-hydroxyphenyl)butanamide]: on human DPP1 enzyme (setting [1]), the 50% inhibitory concentration (IC50) was at least 15 nM.
Same read-out and setting: next, `Cn1c(=O)oc2ccc(-c3ccc(C[C@@H](C#N)NC(=O)COC(=O)c4cccs4)cc3)cc21` [Compound 245, (S)-2-((1-cyano-2-(4-(3-methyl-2-oxo-2,3-dihydrobenzo[d]oxazol-5-yl)phenyl)ethyl)amino)-2-oxoethyl thiophene-2-carboxylate]: at least 15 nM.
For `Cn1c(=O)oc2ccc(-c3ccc(C[C@@H](C#N)NC(=O)CNC(=O)c4cccs4)cc3)cc21` [Compound 239, N-[(1S)-1-cyano-2-[4-(3-methyl-2-oxo-1,3-benzoxazol-5-yl)phenyl]ethyl]-2-(thiophen-2-ylformamido)acetamide], the 50% inhibitory concentration (IC50) against human DPP1 enzyme is over 15 nM.
